The target of the assay is bovine cerebral TPK1 (Bos taurus, UniProt A0A3Q1MT31). As to the kind of experiment: Inhibitory activity against P-GS1 phosphorylation by bovine cerebral TPK1. Particulars: 41.7 μM [γ-32P]ATP, 25° C., 2 hours. The procedure:
Inhibitory Activity of the Medicament of the Present Invention against P-GS1 Phosphorylation by Bovine Cerebral TPK1
A mixture containing 100 mM MES-sodium hydroxide (pH 6.5), 1 mM magnesium acetate, 0.5 mM EGTA, 5 mM β-mercaptoethanol, 0.02% Tween 20, 10% glycerol, 12 μg/ml P-GS1, 41.7 μM [γ-^32P] ATP (68 kBq/ml), bovine cerebral TPK1 and a compound shown in Table (a final mixture contained 1.7% DMSO deriving from a solution of a test compound prepared in the presence of 10% DMSO) was used as a reaction system. The phosphorylation was started by adding ATP, and the reaction was conducted at 25° C. for 2 hours, and then stopped by adding 21% perchloric acid on ice cooling. The reaction mixture was centrifuged at 12,000 rpm for 5 minutes and adsorbed on P81 paper (Whatmann), and then the paper was washed four times with 75 mM phosphoric acid, three times with water and once with acetone. The paper was dried, and the residual radioactivity was measured using a liquid scintillation counter.

Chains of the proteins cited; added tags and fusions are not shown. Residues count along the entry.
UniProt A0A3Q1MT31, 1-419: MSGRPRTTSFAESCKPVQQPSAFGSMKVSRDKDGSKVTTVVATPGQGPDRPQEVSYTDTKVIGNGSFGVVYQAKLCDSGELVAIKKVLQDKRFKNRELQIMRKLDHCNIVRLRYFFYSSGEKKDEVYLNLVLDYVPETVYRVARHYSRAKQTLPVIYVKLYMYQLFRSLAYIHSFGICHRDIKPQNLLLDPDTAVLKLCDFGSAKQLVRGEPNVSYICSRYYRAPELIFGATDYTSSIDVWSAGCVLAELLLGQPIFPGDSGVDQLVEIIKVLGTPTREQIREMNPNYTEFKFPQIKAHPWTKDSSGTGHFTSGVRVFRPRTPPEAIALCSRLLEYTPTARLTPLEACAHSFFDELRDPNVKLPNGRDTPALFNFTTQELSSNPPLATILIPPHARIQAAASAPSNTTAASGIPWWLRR

In general, IC50 refers to the concentration at which inhibition is half-maximal. Read a high IC50 as lower potency. Compound `Cn1c(N2CCC(c3ccc(Br)cc3)CC2)nc(-c2ccncn2)cc1=O` gave an IC50 of 14 nM.
